Laboratory results reported in US8193369B2, “Benzimidazole cannabinoid agonists” (Janssen Pharmaceutica NV, priority 2007, dated 2012).

Sequences of proteins named here, by UniProt entry; tags and fusion partners are left off.
UniProt P34972, whole entry: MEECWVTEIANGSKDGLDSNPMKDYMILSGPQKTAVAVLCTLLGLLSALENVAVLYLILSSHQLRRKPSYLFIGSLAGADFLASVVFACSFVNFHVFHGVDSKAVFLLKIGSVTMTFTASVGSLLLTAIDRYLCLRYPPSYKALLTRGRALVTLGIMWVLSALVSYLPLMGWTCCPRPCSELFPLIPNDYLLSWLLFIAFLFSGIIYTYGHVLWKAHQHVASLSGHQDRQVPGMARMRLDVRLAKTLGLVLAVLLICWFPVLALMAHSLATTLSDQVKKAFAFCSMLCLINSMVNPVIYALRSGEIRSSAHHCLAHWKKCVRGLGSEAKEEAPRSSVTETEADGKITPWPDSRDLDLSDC

Biological target: human CB2 (hCB2) receptor (Homo sapiens, UniProt P34972)
Test: Inhibition of forskolin-activated cAMP production upon activation of human CB2 receptor (HTRF)
Type: cell-based
Conditions: CHO-K1 cells stably transfected with hCB2; 15 μM forskolin; pEC50=-log(EC50); relative to WIN55212-2
Experimental: D. Pharmacological Examples D.1 Inhibition of cAMP in Response to Activation of the Human CB2 Receptors
Functional activity of the test compounds was assessed by measuring their potency to inhibit forskolin-activated cAMP production upon activation of human CB2 (hCB2) receptor through homogenous time resolved fluorescence (HTRF) assays.
CHO-K1 cells stably transfected with hCB2 were grown up to 80-90% confluence in T175 Falcon flasks in DMEM/NUT MIX F-12 culture medium complemented with 2% Solution A (5.10^6 IU/l penicillin G, 5 g/l streptomycin sulphate, 5.5 g/l pyruvate, 14.6 g/l L-glutamine, 1M NaOH) and 10% foetal calf serum. Before the experiments, medium was removed, cells were washed with PBS/EDTA (140 mM NaCl, 1 mM Na2-EDTA, 8 mM Na2HPO4.2H2O, 8.5 mM KH2PO4, 2.7 mM KCl, 21 mM glucose), resuspended in stimulation buffer (HBSS 1×, IBMX 1 mM, Hepes 5 mM, MgCl2 10 mM, BSA 0.1%, pH 7.4). Cells were diluted to a concentration of 10^6 cells/ml for hCB2 experiments. Assays were performed using the cAMP Dynamic HTRF kit (CIS bio international, France) according to the recommendations of the manufacturer. […]
After equilibration of the reaction mixtures for 1 to 24 hours in dark at room temperature, fluorescence was measured at 665 nm and 620 nm using a Discovery microplate fluorescence counter (Perkin Elmer), and the signal ratio of 665 nm/620 nm was calculated. […]

With `CC(=O)N1CCC(Cn2c(C(C)(C)C)nc3cc(SCC4CC4)ccc32)CC1` the “CB2 pEC50” value was 8.68.
